PubChem BioAssay AID743279 (National Center for Advancing Translational Sciences (NCATS), 2014)
Out of some 360,000 compounds screened, about 17,000 (4.7%) were called active. All entries are inconclusive by the source's own rule. Clear calls are listed elsewhere. No stated cut-off is given here; in the data, active means activity change below about -50%; inconclusive means mostly about -30% to -49%; inactive means weaker than that.

Experiment: qHTS for Inhibitors of Inflammasome Signaling: IL-1-beta AlphaLISA Primary Screen
Details: THP-1 LPS/ATP IL-1B secretion, 16 h, at 57.5 µM, hits give low values
From the text: Inflammasomes are a set of intracellular multi-protein complexes that enable autocatalytic activation of inflammatory caspases and drive the innate immune response to counter harmful agents. […] A qHTS assay, based on AlphaLISA technology, was developed to screen the Molecular Libraries Small Molecule Repository (MLSMR) to look for novel inflammasome inhibitors. The assay detects IL-1B using AlphaLISA anti-IL-1B acceptor and donor beads. A decreased emission signal, indicating reduced IL-1B secretion, is the desired outcome for this assay. NIH Chemical Genomics Center [NCGC] NIH Molecular Libraries Probe Centers Network [MLPCN] MLPCN Grant: MH095513 Assay Provider: Shyam Biswal Ph.D., Johns Hopkins University Immunity. 2012 Jul 27;37(1):85-95. PMID: 22819042 [2] Curr Pharm Des. 2012;18(16):2320-8. PMID: 22390695
Three microliters containing 3000 THP-1 cells were dispensed into the wells of solid, white, tissue culture treated Greiner 1,536-well plates. Library compounds and positive control, Glyburide, were pin-transferred (23 nL) by a Kalypsys pin-tool equipped with a 1,536-pin array, resulting in final compound concentration ranges of 2.5 nM to 57.5 uM. After 1 hr of cell culture incubation (37 °C, 5% CO2), 1 microL of 1 microg/mL lipopolysaccharide (250 ng/mL, final) and 5 mM ATP (1.25 mM, final) were added to stimulate the cells. After 16 hr of cell culture incubation with the compounds, 1.5 uL of anti-IL-1B acceptor beads (6 ug/mL, final) and biotinylated antibody (0.6 nM, final) were added to the plate, followed by a 1 hr incubation at ambient temperature. To detect the secreted IL-1B, 1.5 uL of AlphaLISA SA-Donor beads (24 ug/mL, final) were added, followed by 30 min of incubation in the dark at ambient temperature. The AlphaLISA signal was read by a PerkinElmer EnVision plate reader with an ultrasensitive luminescence detector and 1536 Plate HTS AlphaScreen aperture (excitation of 680nm and emission of 615nm).
On the % scale 0 is the no-effect control and ±100 the full control effect.

Compound | activity change
Cc1ccccc1CN(C)C(=O)COC(=O)C(O)(c1ccccc1)c1ccccc1 | inconclusive: -38%
Cc1cc(SC(NC=O)C(Cl)(Cl)Cl)ncn1 (stereo not drawn) | inconclusive: -41.4%
COc1cc(C(=O)NCC2(N3CCOCC3)CCCCC2)cc(Cl)c1OC(C)C | inconclusive: -47%
